Assay results published in patent US20130243707A1 (published 2013).

What was measured:
[1] = Super-solvent water effect (maximum water before NSAID precipitates); conditions: Ibuprofen 4 gm, PG 4 gm, PEG 3 gm, EtOH 1 gm, IPA 1.1 gm
[2] = Super-solvent effect (Drug solubilized by combinations of solvent alcohols)

Structure (SMILES): CC(C)Cc1ccc(C(C)C(=O)O)cc1 (centres unmarked) [Ibuprofen]
- Super-solvent Effect on water [1]: 49.8%
- Super-solvent Effect ([2]; EtOH 1 gr, IPA 1.1 gr): 48.8%
- Super-solvent Effect ([2]; PEG 400 3 gr, EtOH 1 gr): 15.4%
- Super-solvent Effect ([2]; PEG 400 3 gr, EtOH 1 gr, IPA 1.1 gr): 4.0%
- Super-solvent Effect ([2]; PEG 400 3 gr, IPA 1.1 gr): 15.5%
- Super-solvent Effect ([2]; PG 4 gr, EtOH 1 gr): 31.3%
- Super-solvent Effect ([2]; PG 4 gr, EtOH 1 gr, IPA 1.1 gr): 28.8%
- Super-solvent Effect ([2]; PG 4 gr, IPA 1.1 gr): 31.5%
- Super-solvent Effect ([2]; PG 4 gr, PEG 400 3 gr): 50.0%
- Super-solvent Effect ([2]; PG 4 gr, PEG 400 3 gr, EtOH 1 gr): 32.0%
- Super-solvent Effect ([2]; PG 4 gr, PEG 400 3 gr, IPA 1.1 gr): 41.2%
